Experimental data taken from publication PMC12269682 (mAbs, 2025).

Molecular target: T1, human epidermal growth factor receptor 2 (Homo sapiens, endogenous on SKBR3 cells, UniProt P04626)
T1 construct: human epidermal growth factor receptor 2 (HER2), on the HER2-expressing breast cancer cell line SKBR3; also called HER2; HER-2; source: endogenous, on SKBR3 cells
Assay: flow cytometry on cells; antibody constructs on HER2-expressing SKBR3 cells, dose series; staining 20 min on ice, goat anti-human IgG FITC secondary antibody, MFI read
Conditions: one partner purified

B1: trastuzumab VH R50S+R59N (antibody, V domains shown)
VH: [omitted - about 120 residues]
VL: DIQMTQSPSSLSASVGDRVTITCRASQDVNTAVAWYQQKPGKAPKLLIYSASFLYSGVPSRFSGSRSGTDFTLTISSLQPEDFATYYCQQHYTTPPTFGQGTKVEIK
notes: as the heavy chain of m1 (trastuzumab, Fab part in PDB […]) with R50S and R59N in the VH; as the light chain of m1 (trastuzumab, in PDB […]); Whole antibody (used in ADCC assays)
  binding result: binds
